Test system: focal cerebral ischemia
Settings: single i.p. 100 mg/kg with piperonyl butoxide 400 mg/kg, 15 min after MCA occlusion; 24 h after 90-minute occlusion

CCCCCCCCCC(=O)N[C@H](CN1CCOCC1)[C@H](O)c1ccccc1 [D-PDMP, D-threo-1-phenyl-2-decanoylamino-3-morpholino-1-propanol]
infarct volume (average ischemic lesion volume): 6.01±2.10 mm^3
